## AlphaSeq binding of Ab-14 heavy chain variants to a spike HR2 peptide

Reference: Li et al. 2023, doi:10.1038/s41467-023-39022-2. File: FLAb, binding data.

All variants were tested on one target, the spike HR2 peptide PDVDLGDISGINAS (SARS-CoV-2).

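Designed CDR sequences, proposed from the first random library and measured here. Their group label is 14H_En_Gen (En: ensemble of fine-tuned language models; Gen: genetic algorithm). AlphaSeq pools MATa yeast showing the antibodies with MATalpha yeast showing the peptide. Binding brings cells together so that they mate, and sequencing counts the barcode pairs among the diploids. A regression on co-assayed BCL2-family reference pairs converts the normalised counts of each replicate to an apparent Kd. The assay was run in six technical replicates.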

Ab-14 is the parent antibody, in scFv form: VH, then a 15-residue (Gly4Ser)3 linker, then VL. The light chain is unchanged in all variants.
VH: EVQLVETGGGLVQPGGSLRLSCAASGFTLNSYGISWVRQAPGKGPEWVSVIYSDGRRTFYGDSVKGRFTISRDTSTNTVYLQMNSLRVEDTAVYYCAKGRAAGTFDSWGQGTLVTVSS
VL: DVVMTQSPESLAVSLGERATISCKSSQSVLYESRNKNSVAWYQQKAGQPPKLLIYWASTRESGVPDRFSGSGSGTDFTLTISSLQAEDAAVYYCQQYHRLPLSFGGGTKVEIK

Each variant is given by its three heavy chain CDRs, as the data file delimits them; those of the parent are GFTLNSYGIS, VIYSDGRRTFYGDSVK, GRAAGTFDS.
The read-out is the apparent dissociation constant on a log10 scale (nM): the lower, the stronger.
"ND" marks a missing value. The strain was present, yet no cells mated with the target were sequenced in that replicate, which points to weak or no binding.

| CDR-H1 | CDR-H2 | CDR-H3 | log10 Kd (nM) by replicate | control signals |
|---|---|---|---|---|
| GFDLNEYGIS | VIYADGMRTAYTDSVK | GKNAGTFDV | -0.35 / -0.08 / 0.13 / -0.09 / -0.48 / -0.32 | 0 of 18 |
| GFDLDEYGIS | VIYADGKRTAYADSVK | GETAGTFDQ | -0.01 / -0.47 / -0.23 / -0.53 / -0.67 / 0.09 | 1 of 18 (1.19) |
| GFDLDEYGIS | VIYADGKRTAYADSVK | GQTAGTFDV | -1.39 / -1.10 / -0.92 / -1.67 / -1.10 / -0.95 | 0 of 18 |
| GFDLDEYGIS | VIYADGKRTAYADSVK | GNEAGTFDL | -0.47 / -0.76 / -0.40 / 0.03 / -0.33 / 0.71 | 0 of 18 |
| GFDLDEYGIS | VIYADGKRTFYADSVK | GTNAGTFDV | ND / -0.54 / ND / ND / -0.13 / 0.67 | 0 of 18 |
| GFDLNEYGIS | VIYADGSRTAYADDVK | GQNAGTFDV | -0.57 / -0.66 / -1.24 / -0.92 / -0.89 / -1.08 | 1 of 18 (1.35) |
| GFDLNEYGIS | VIYADGQRTYYADSVK | GNEAGTFDV | -0.31 / -0.53 / -0.59 / -0.60 / -0.28 / -0.37 | 0 of 18 |
| GFDLNEYGIS | VIYADGKRTAYADDVK | GNQAGTFDI | -0.17 / -0.08 / 0.64 / -0.38 / -0.16 / 0.25 | 0 of 18 |
| GFDLNEYGIS | VIYADGMRTAYANDVK | GEVAGTFDQ | -0.25 / -0.18 / -0.43 / -0.84 / -0.52 / -0.30 | 0 of 18 |
| GFDLDEYGIS | VIYADGMRTAYADSVK | GGNAGTFDM | -0.01 / 0.55 / 0.18 / 0.25 / 0.35 / 0.39 | 1 of 18 (2.36) |
| GFDLDEYGIS | VIYADGMRTAYVDSVK | GNTAGTFDV | -0.16 / -0.36 / -0.26 / -0.71 / -0.59 / -0.22 | 0 of 18 |
| GFDLDEYGIS | VIYADGSRTAYADSVK | GNEAGTFDV | -0.14 / -0.12 / -0.54 / -0.63 / -0.63 / 0.06 | 0 of 18 |
| GFDLNEYGIS | VIYADGQRKVYADSVK | GNVAGTFDV | -0.47 / -0.34 / -0.42 / -0.58 / -0.55 / -0.33 | 0 of 18 |
| GFDLNEYGIS | VIYADGQRTFYADSVK | GENAGTFDM | 0.26 / -0.26 / -0.74 / 0.10 / -0.81 / 0.25 | 0 of 18 |
| GFDLNEYGIS | VIYADGVRTFYADSVK | GNQAGTFDV | -0.25 / -0.41 / -0.65 / -0.55 / -0.46 / -0.64 | 0 of 18 |
| GFDLDEYGIS | VIYADGVRTAYVDSVK | GNVAGTFDL | -0.56 / -0.32 / -0.70 / -0.69 / -0.51 / -0.29 | 0 of 18 |
| GFDLNEYGIS | VIYADGQRTAYADNVK | GEVAGTFDM | ND / ND / 1.33 / ND / ND / ND | 0 of 18 |
| GFDLDEYGIS | VIYADGKRTAYSDSVK | GENAGTFDT | -0.42 / -0.06 / -0.32 / -0.44 / -0.66 / -0.12 | 1 of 18 (2.20) |
| GFDLNEYGIS | VIYADGMRSYYADSVK | GNTAGTFDV | 0.23 / 0.32 / 1.24 / 0.04 / 0.63 / 0.60 | 0 of 18 |
| GFDLDEYGIS | VIYADGMRTAYSDSVK | GDNAGTFDV | ND / ND / ND / ND / ND / ND | 0 of 18 |
| GFDLNEYGIS | VIYADGMRTAYSDSVK | GNEAGTFDT | 0.05 / -0.05 / 0.12 / -0.47 / -0.32 / -0.16 | 0 of 18 |
| GFDLNEYGIS | VIYADGKRTAYTDSVK | GNQAGTFDI | -0.14 / -0.34 / -0.36 / -0.66 / 0.26 / 0.28 | 0 of 18 |
| GFDLDEYGIS | VIYADGSRTAYTDSVK | GNVAGTFDV | 0.32 / -0.86 / -0.49 / -0.94 / -0.92 / -0.88 | 0 of 18 |
| GFDLNEYGIS | VIYADGQRTAYADSVK | GENAGTFDM | -0.44 / -0.51 / -0.11 / -0.57 / -0.10 / -0.09 | 0 of 18 |
| GFDLNEYGIS | VIYADGRRTAYADSVK | GDNAGTFDV | 0.04 / 0.24 / 0.05 / -0.82 / -0.18 / -0.07 | 0 of 18 |
| GFDLNEYGIS | VIYADGKRTAYADDVK | GGNAGTFDI | -0.40 / -0.32 / -0.48 / -0.52 / -0.67 / -0.42 | 0 of 18 |
| GFDLNEYGIS | VIYADGMRTAYSDNVK | GNVAGTFDM | 0.26 / 0.24 / 0.49 / 0.38 / 0.23 / 0.02 | 0 of 18 |
| GFDLNEYGIS | VIYADGMRTAYSDSVK | GTNAGTFDT | 0.75 / 2.69 / 1.33 / 0.46 / 0.58 / 0.81 | 0 of 18 |
| GFDINEYGIS | VIYADGQRTAYADSVK | GNVAGTFDV | -0.37 / -0.57 / -0.46 / -0.70 / -0.30 / -0.26 | 1 of 18 (2.67) |
| GFDLNEYGIS | VIYADGQRTAYSDSVK | GNTAGTFDV | 0.56 / 0.59 / 0.10 / -0.36 / 0.33 / 0.51 | 0 of 18 |
| GFDLNEYGIS | VIYADGRRTYYADSVK | GNVAGTFDV | -0.28 / -0.40 / 0.17 / -0.14 / -0.73 / 0.02 | 0 of 18 |
| GFDLNEYGIS | VIYADGMRTAYSDSVK | GDNAGTFDI | 0.01 / -0.06 / -0.34 / -0.21 / 0.07 / 0.13 | 0 of 18 |
| GFDLNEYGIS | VIYADGRRTAYSDSVK | GENAGTFDL | -0.10 / -0.26 / 0.48 / -0.62 / -0.30 / -0.44 | 1 of 18 (1.26) |
| GFDLDEYGIS | VIYADGSRTAYIDSVK | GNVAGTFDV | -0.21 / -0.10 / -0.06 / -0.11 / -0.13 / -0.16 | 0 of 18 |
| GFDLNEYGIS | VIYADGMRTAYVDNVK | GNNAGTFDV | -0.85 / -1.46 / -1.13 / -1.45 / -0.29 / -1.41 | 0 of 18 |
| GFDLNEYGIS | VIYADGVRTAYVDSVK | GENAGTFDV | -0.60 / -0.88 / -0.52 / -0.51 / -0.51 / -0.27 | 0 of 18 |
| GFDLNEYGIS | VIYADGRRTFYADSVK | GNVAGTFDL | -0.16 / -0.23 / -0.38 / -0.62 / -0.52 / -0.23 | 0 of 18 |
| GFDLNEYGIS | VIYADGKRTAYSDSVK | GEVAGTFDQ | -0.39 / -0.53 / -0.51 / -0.63 / -0.53 / -0.36 | 0 of 18 |
| GFDLDEYGIS | VIYADGMRTAYADNVK | GQVAGTFDL | -0.54 / -0.50 / -0.42 / -0.64 / -0.89 / -0.50 | 0 of 18 |
| GFDLNEYGIS | VIYADGVRTAYSDSVK | GNNAGTFDT | -0.13 / -0.57 / -0.31 / -0.46 / -0.64 / -0.64 | 0 of 18 |
| GFDLNEYGIS | VIYADGMRTAYADNVK | GNQAGTFDI | 1.79 / 0.09 / 0.84 / 0.22 / 0.23 / 0.42 | 0 of 18 |
| GFDLNEYGIS | VIYADGVRTAYADSVK | GQVAGTFDV | -0.48 / -0.43 / -0.70 / -0.63 / -0.70 / -0.41 | 0 of 18 |
| GFDLNEYGIS | VIYADGRRTAYADSVK | GETAGTFDT | 0.03 / -0.02 / 0.18 / 0.36 / 0.37 / 0.83 | 0 of 18 |
| GFDLNEYGIS | VIYADGVRTYYADSVK | GNVAGTFDQ | -0.59 / -0.56 / -0.66 / -0.30 / -0.18 / -0.37 | 0 of 18 |
| GFDLNEYGIS | VIYADGKRTAYSDSVK | GNEAGTFDM | -1.05 / -1.41 / -1.23 / -1.72 / -1.05 / -0.74 | 0 of 18 |
| GFDLNEYGIS | VIYADGMRTVYADSVK | GNNAGTFDI | -0.61 / 0.00 / -0.56 / -0.58 / -0.69 / -0.52 | 1 of 18 (1.82) |
| GFDLDEYGIS | VIYADGMRTAYSDSVK | GSNAGTFDM | -0.26 / -0.19 / -0.25 / -0.41 / -0.09 / 0.03 | 0 of 18 |
| GFDLNEYGIS | VIYADGVRTAYADSVK | GNVAGTFDA | -0.74 / -0.62 / -0.77 / -0.46 / -0.44 / -0.40 | 0 of 18 |
| GFDLNEYGIS | VIYADGMRTAYSDSVK | GQVAGTFDT | -0.43 / -0.60 / -0.74 / -0.93 / -0.40 / -0.60 | 0 of 18 |
| GFDLNEYGIS | VIYADGMRTAYSDDVK | GQNAGTFDL | -0.10 / -0.93 / -0.64 / -0.83 / -1.01 / -0.28 | 0 of 18 |
| GFDLEEYGIS | VIYADGMRTAYADSVK | GNTAGTFDV | -0.75 / -0.26 / -0.81 / -0.87 / -0.91 / -0.09 | 0 of 18 |

Top 7 of the variants detected in all replicates, tightest first:

| CDR-H1 | CDR-H2 | CDR-H3 | log10 Kd (nM) by replicate | control signals |
|---|---|---|---|---|
| GFDLNEYGIS | VIYADGKRTAYSDSVK | GNEAGTFDM | -1.05 / -1.41 / -1.23 / -1.72 / -1.05 / -0.74 | 0 of 18 |
| GFDLDEYGIS | VIYADGKRTAYADSVK | GQTAGTFDV | -1.39 / -1.10 / -0.92 / -1.67 / -1.10 / -0.95 | 0 of 18 |
| GFDLNEYGIS | VIYADGMRTAYVDNVK | GNNAGTFDV | -0.85 / -1.46 / -1.13 / -1.45 / -0.29 / -1.41 | 0 of 18 |
| GFDLNEYGIS | VIYADGSRTAYADDVK | GQNAGTFDV | -0.57 / -0.66 / -1.24 / -0.92 / -0.89 / -1.08 | 1 of 18 (1.35) |
| GFDLNEYGIS | VIYADGMRTAYSDDVK | GQNAGTFDL | -0.10 / -0.93 / -0.64 / -0.83 / -1.01 / -0.28 | 0 of 18 |
| GFDLDEYGIS | VIYADGSRTAYTDSVK | GNVAGTFDV | 0.32 / -0.86 / -0.49 / -0.94 / -0.92 / -0.88 | 0 of 18 |
| GFDLNEYGIS | VIYADGMRTAYSDSVK | GQVAGTFDT | -0.43 / -0.60 / -0.74 / -0.93 / -0.40 / -0.60 | 0 of 18 |

Values of this round are not directly comparable with the first-round values of the same sequences.
Empty control strains, which show no peptide, gave a signal in 1% of pairings with all heavy chain designs; the median was 2.08 and 95% of these signals were weaker than 0.84. No background was subtracted. For each scFv, signals with the empty controls are counted beside the result, with their mean in brackets.
Of ten entries with the parent sequence, four were seen in most replicates (averages 0.34 to 2.37), three in one and three in none, so single entries are noisy.
In the paper, a design with two or fewer of six values counts as a poor binder.